The source of these data is US20260364181A1, “AKR1C3 Targeted Heterobifunctional Small Molecule Proteolysis Targeting Chimeras” (BOARD OF REGENTS OF THE UNIVERSITY OF NEBRASKA, priority 2022, published 2026).

Protein sequences, listed by entry. Tags and fused reporters are not part of them.
UniProt P42330, whole entry: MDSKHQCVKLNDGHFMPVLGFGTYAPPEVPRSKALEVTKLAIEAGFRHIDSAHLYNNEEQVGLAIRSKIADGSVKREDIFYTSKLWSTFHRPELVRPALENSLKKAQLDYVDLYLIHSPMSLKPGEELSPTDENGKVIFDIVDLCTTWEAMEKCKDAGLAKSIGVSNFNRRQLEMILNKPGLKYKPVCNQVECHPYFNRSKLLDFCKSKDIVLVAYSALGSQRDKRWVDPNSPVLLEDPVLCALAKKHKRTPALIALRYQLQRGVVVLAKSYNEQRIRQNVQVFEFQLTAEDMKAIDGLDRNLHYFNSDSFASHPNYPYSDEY
UniProt P52895, whole entry: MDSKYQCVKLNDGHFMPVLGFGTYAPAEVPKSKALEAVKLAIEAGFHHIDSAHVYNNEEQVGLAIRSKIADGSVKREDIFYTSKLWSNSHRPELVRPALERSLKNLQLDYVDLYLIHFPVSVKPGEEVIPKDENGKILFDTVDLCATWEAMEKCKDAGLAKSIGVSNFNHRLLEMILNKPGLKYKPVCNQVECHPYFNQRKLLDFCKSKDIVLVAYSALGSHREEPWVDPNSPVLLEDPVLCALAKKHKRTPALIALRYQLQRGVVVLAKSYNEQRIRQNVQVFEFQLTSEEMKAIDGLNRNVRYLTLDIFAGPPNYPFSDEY
UniProt Q04828, whole entry: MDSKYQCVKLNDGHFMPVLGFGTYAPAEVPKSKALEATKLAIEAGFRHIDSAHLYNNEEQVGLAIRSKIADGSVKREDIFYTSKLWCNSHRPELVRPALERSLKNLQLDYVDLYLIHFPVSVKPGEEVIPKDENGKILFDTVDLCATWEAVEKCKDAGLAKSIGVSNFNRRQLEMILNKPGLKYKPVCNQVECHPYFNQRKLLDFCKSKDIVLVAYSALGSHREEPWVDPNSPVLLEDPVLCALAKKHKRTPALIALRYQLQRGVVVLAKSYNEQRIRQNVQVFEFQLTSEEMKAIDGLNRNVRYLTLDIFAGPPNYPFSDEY

pIC50: −log10 of the molar value.

By pIC50 is commonly meant the IC50 on a negative log10 scale, so that one unit is a factor of ten.

Experiment [1] addresses T1, AKR1C3 (Homo sapiens, UniProt P42330). The experiment is described as follows: AKR1C3 enzyme inhibition (oxidation of S-tetralol). The note with it: read-out: IC50 (AKR1C3 inhibition); IC50 concentration used for treatment of 22Rv1 cells. The procedure: (§1) Enzyme Inhibition Assay. (S)-(+)-1,2,3,4-tetrahydro-1-naphthol (S-tetralol) was purchased from Sigma-Aldrich (St. Louis, MO). Nicotinamide adenine dinucleotide (NAD^+) and nicotinamide adenine dinucleotide phosphate (NADP^+) were purchased from Roche Diagnostics (Indianapolis, IN). Homogeneous recombinant enzymes AKR1C1, AKR1C2, AKR1C3 and AKR1C4 were prepared and purified as previously described.^3 The specific activities of AKR1C3 and AKR1C2 for the oxidation of S-tetralol are 2.0 and 1.5 μmol/(min mg), respectively.
(§2) Assay of Enzyme Activity. The dehydrogenase activities of AKR1C3 and AKR1C2 were determined by measuring the UV absorption of NADH formation at 340 nm using a Beckman DU-640 spectrophotometer. […] After continuously monitoring for 5 min, we recorded the increase in UV absorption using different concentrations of an enzyme to calculate the initial velocity and determine the specific activity of the enzyme.
(§3) IC50 Value Determination. The inhibitory potency for each compound was represented by IC50 values and measured as described before. The IC50 values of [COMPOUND LEFT OUT] and [COMPOUND LEFT OUT] analogues were determined by measuring their inhibition of the NADP+-dependent oxidation of S-tetralol catalyzed by AKR1C3 or AKR1C2. […]

A further experiment deals with AKR1C2 (Homo sapiens, UniProt P52895). Kind of experiment: AKR1C2 enzyme inhibition (oxidation of S-tetralol). The note with it: read-out: IC50 versus AKR1C2; AKR1C1/2, these two isoforms. The procedure: as §1, §2, §3
A further experiment deals with AKR1C1 (Homo sapiens, UniProt Q04828). The experiment is described as follows: AKR1C1 enzyme inhibition. The note with it: read-out: IC50 versus AKR1C1; AKR1C1/2, these two isoforms. The procedure:
as §1, §2, §3

Experiment [2] has as its system 22Rv1 prostate cancer cells. Kind of experiment: 22Rv1 cell viability (MTS assay). To be noted: read-out: IC50 (22Rv1 cell viability), 72 h, mean±standard deviation of two independent experiments. The procedure: Cell culture and reagents. 22Rv1 cells were purchased from the American Type Culture Collection (ATCC in 2016) and cultured in RPMI 1640 supplemented with 10% Fetal Bovine Serum (FBS, Fisher Scientific, MT35011CV) and Penicillin-Streptomycin Solution (1%, Fisher Scientific, MT30001Cl) at 37 °C in a humidified incubator with 5% carbon dioxide atmosphere. Stock solutions of E3 ligase ligand, lenalidomide 6 (10 mM), PROTAC 5 (25 mM), and AKR1C3 inhibitor 3 (100 mM) were prepared in DMSO.
Cell viability assay. Cells were seeded at a density of 10,000 cells/well in a 96-well plate containing 100 μL growth media per well and were incubated at 37 °C in a humidified incubator with 5% carbon dioxide over ~18-24 hours. Cells were treated with 6, 5, and 3 serially diluted at the indicated concentrations limiting the final DMSO concentration to less than 0.1% and incubated at 37 °C for 72 hours. 10 μL of MTS reagent (CellTiter96®Aqueous One Solution Reagent, Promega, G3580) was added to each well and incubated at the above-mentioned conditions for 4 hours. Absorbance was recorded at OD 490 nm on a Synergy LX multi-mode reader and the viability of cells were plotted as percentage of DMSO control.
Background: Tetrazolium assays rely on reduction of a dye to a coloured formazan, in cell work by metabolically active cells.

The test system of the next experiment is ARv7. Kind of experiment: ARv7 protein degradation in 22Rv1 prostate cancer cells (Western blot). To be noted: up to 72 hours, in words. The procedure: (§4) Protein Expression via Western Blot. 22Rv1 cells were seeded in a 6-well plate and incubated overnight. Next day, the cells were treated with varying concentrations of 6 (1 and 10 μM) and 5 (0.5, 1, 10, 50, 100, 250, and 500 nM; 1, 10, and 50 μM) for 24 hours and 5 (1 and 10 nM) at different time points (0, 2, 4, 6, 12, 16, 24, 48, and 72 h). Whole cell lysates were extracted in RIPA lysis buffer containing protease inhibitor and EDTA (Fisher Scientific, PI78440). Protein concentrations in each sample was estimated following BCA assay (Pierce™ BCA protein assay kit, Fisher Scientific, PI23227) as per the manufacturer's protocol. Proteins were standardized using RIPA lysis buffer with Laemelli SDS sample buffer (Thermo Scientific, AAJ61337AC) and heated at 1000C for 15 minutes. The proteins were resolved on a 4-12% premade gel (Invitrogen, NW04120BOX) at 60-90 V in 20× Bolt™ MES SDS running buffer (Fisher Scientific, B000202) and transferred onto a nitrocellulose membrane (Invitrogen, IB23001) using iBlot 2. […] Bands were quantified by densitometry using ImageJ software and fold change in AKR1C3, AKR1C1/C2, and ARv7 protein expression was determined based on actin controls. […]
(§5) As Compounds 3 and 4 exert their degradation activity at 72 hours (FIG. 2), the time-dependent degradation effect of Compound IA at 0, 2, 4, 6, 12, 16, 24, 48, and 72 h was then determined.
For orientation: A western blot detects proteins with antibodies after separation by electrophoresis.

Experiment [3] concerns the target T1, AKR1C3. The experiment is described as follows: AKR1C3 protein degradation in 22Rv1 prostate cancer cells (Western blot). To be noted: in words. The procedure:
as §4, with “protocol.” for “protocol. Proteins were standardized using RIPA lysis buffer with Laemelli SDS sample buffer (Thermo Scientific, AAJ61337AC) and heated at 1000C for 15 minutes. The proteins were resolved on a 4-12% premade gel (Invitrogen, NW04120BOX) at 60-90 V in 20× Bolt™ MES SDS running buffer (Fisher Scientific, B000202) and transferred onto a nitrocellulose membrane (Invitrogen, IB23001) using iBlot 2.”
The AKR1C3 degradation effect of PROTAC 5 was screened across a range of concentrations to identify a suitable treatment protocol. 22Rv1 cells were treated with increasing concentrations of […], DMSO or lenalidomide 6 at 1 μM and 10 μM for 24 hours, and the degradation profile was determined by Western blot analysis with antibody for AKR1C3.
as §5

A further experiment deals with AKR1C1/C2. The experiment is described as follows: AKR1C1/C2 protein degradation in 22Rv1 prostate cancer cells (Western blot). The note with it: 43 nM (IC50 concentration); up to 72 hours; in words. The procedure:
as §4, §5

As to `Cc1ccc(CNC(=O)c2cc(/C=C/C(=O)O)cc(-c3ccccc3)c2)cc1`, the pIC50 was 7.37 on AKR1C3 [1], below 4.00 on AKR1C2, below 4.00 on AKR1C1 and 4.39 in experiment [2]. In the experiment on ARv7 (43 nM (IC50 concentration)), the “degradation of ARv7” value is on record as “no evidence of degradation”. The “time course of ARv7 degradation” value in the experiment with ARv7 (1 μM) is “degraded in a time-dependent manner”. Further, on AKR1C3 [3] (43 nM (IC50 concentration), up to 72 hours), the “degradation of AKR1C3” value is listed as “no evidence of degradation”. Besides, at AKR1C3 [3] (1 μM, 24-72 hours), the “time course of AKR1C3 degradation” value was “time-dependent increase in degradation”. In addition, the “degradation of AKR1C1/2” value with AKR1C1/C2 is “no evidence of degradation”.
